# Measurements: ChEMBL document CHEMBL5053531, “Development of BromoTag: A "Bump-and-Hole"-PROTAC System to Induce Potent, Rapid, and Selective Degradation of Tagged Target Proteins” (J Med Chem, 2021)
# The chains behind the UniProt entries cited, without tags or fusion partners.
# von Hippel-Lindau disease tumor suppressor/Bromodomain-containing protein 4 (Homo sapiens), O60885+P40337, UniProt P40337, whole entry, looked up: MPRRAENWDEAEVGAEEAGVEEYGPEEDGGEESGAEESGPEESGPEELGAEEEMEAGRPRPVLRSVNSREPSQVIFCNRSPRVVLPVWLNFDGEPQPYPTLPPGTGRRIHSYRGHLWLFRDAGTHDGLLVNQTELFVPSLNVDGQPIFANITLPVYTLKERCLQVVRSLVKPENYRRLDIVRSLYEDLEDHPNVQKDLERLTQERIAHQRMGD
# Calls of active or inactive are those of the source. The calls are words filed in the database; no cut-off is given here.
# Legend:
# [1] = system: von Hippel-Lindau disease tumor suppressor/Bromodomain-containing protein 4 (Homo sapiens), O60885+P40337 [L387A]; test: Bump and hole PROTAC activity at BromoTag-Brd4 BD2 L387A mutant/VHL-bound E3 ligase in HEK293 cells assessed as Brd2 degradation measured in presence of MLN4924 after 6 hrs by Western blot analysis; type: cell-based
# [2] = system: von Hippel-Lindau disease tumor suppressor/Bromodomain-containing protein 4 (Homo sapiens), O60885+P40337 [L387A]; test: Bump and hole PROTAC activity at BromoTag-Brd4 BD2 L387A mutant/VHL-bound E3 ligase in HEK293 cells assessed as Brd2 degradation measured in presence of VH298 after 6 hrs by Western blot analysis; type: cell-based
smiles,measurement,setting,value
CC[C@@H](C(=O)OCCOCCOCCOCC(=O)N[C@H](C(=O)N1C[C@H](O)C[C@H]1C(=O)NCc1ccc(-c2scnc2C)cc1)C(C)(C)C)[C@@H]1N=C(c2ccc(Cl)cc2)c2c(sc(C)c2C)-n2c(C)nnc21,inhibition,[1],Active
same,inhibition,[2],Active
